AlphaSeq binding of Ab-14 light chain variants to a spike HR2 peptide

Source: Li et al. 2023 (doi:10.1038/s41467-023-39022-2), MIT Lincoln Laboratory and A-Alpha Bio; data file from the FLAb repository.

Antigen: PDVDLGDISGINAS, a 14-residue peptide of the SARS-CoV-2 spike HR2 region.

Parent scFv Ab-14: VH joined to VL by a 15-residue (Gly4Ser)3 linker. Changes lie in the light chain CDRs alone.
VH: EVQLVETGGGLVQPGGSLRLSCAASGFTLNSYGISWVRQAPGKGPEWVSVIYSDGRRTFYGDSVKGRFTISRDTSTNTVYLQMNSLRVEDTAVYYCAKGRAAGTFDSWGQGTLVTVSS
VL: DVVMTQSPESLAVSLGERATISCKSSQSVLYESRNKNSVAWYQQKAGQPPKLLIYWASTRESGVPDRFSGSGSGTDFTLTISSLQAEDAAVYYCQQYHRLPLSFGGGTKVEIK

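The variants were designed computationally from a first round of random CDR variants and then made and measured. Several design methods are mixed in this list. The assay is AlphaSeq: two haploid yeast populations carry antibody and antigen on their surface. The frequency of each diploid, read from paired DNA barcodes, reflects how well the two displayed proteins bind. Scores were corrected for input abundance and mapped to Kd with protein pairs of known affinity run in the same pool. The assay was run in six technical replicates.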

Variants are written as CDR1, CDR2 and CDR3 of the light chain (limits as in the source). Parent: KSSQSVLYESRNKNSVA, WASTRES, QQYHRLPLS.
This list holds designs with more than six substitutions.
The read-out is the apparent dissociation constant on a log10 scale (nM): the lower, the stronger.
Averages over replicates are reported, and they cover detected replicates only.
Where no diploid with the target was found in that replicate, the entry reads "nd": below detection, most likely a poor binder, though not proof of it.
Of ten entries with the parent sequence, four were seen in most replicates (averages 0.34 to 2.37), three in one and three in none, so single entries are noisy.
A sequence measured in both rounds can read differently, since the two assays cover different ranges.
Empty control strains, which show no peptide, gave a signal in 4% of pairings with all light chain designs; the median was 2.64 and 95% of these signals were weaker than 1.59. No background was subtracted.
The authors averaged sequences with at least three values out of six and counted those with two or fewer as poor binders.

SLQTKYSTAQDRWSNIA, HADQREA, QQYFRLPIV: 0.83, 0.60, 0.89, 0.57, 0.48, 0.85 (mean 0.70).
KLQQSMLYMDRNANNVA, NASQRES, QQYHRLPLS: 0.41, 0.25, 0.30, -0.14, 0.53, 0.69 (mean 0.34).
ILSQMLLMAGNKHNSVA, QANYRES, QQYHRLPLS: 1.52, 1.95, 0.86, 1.46, 1.04, 1.14 (mean 1.33).
RLSTEHTGYGKMMNNIA, QGSTKQF, QQYDRLPLH: 0.57, 0.89, 0.65, 0.53, 0.50, 0.82 (mean 0.66).
MISQMYNMGQFAINSVA, QASIRND, QQYDRLPLI: nd, 1.55, nd, 1.72, nd, 1.82 (mean 1.70).
KLVNFMNRGTHHTSNIA, DAALREE, QQYYRLPLA: 0.36, 0.24, 0.14, 0.20, 0.27, 0.03 (mean 0.21).
KLIQMTGIESHNKNSLA, DANRRES, QQYHRLPLS: 0.64, 0.83, 0.68, 0.55, 0.51, 0.64 (mean 0.64).
MISQILNMGQFAINSVA, QASLRCN, QQYDRLPLA: nd, nd, nd, nd, nd, nd.
LLSGSMGYEQRNKNSVA, DASTRES, QAYHRLPLS: -0.31, 0.06, 0.15, -0.26, 0.13, 0.28 (mean 0.01).
KIGMTLNTLMHTKNNVA, DLVMREK, QQYHRLPLS: 0.37, 0.28, 1.06, 0.24, -0.06, 0.38 (mean 0.38).
KVSEFMKGLMGRTDSIA, DNTTRGQ, QQYDRLPLS: 1.13, 1.10, 0.97, 0.93, 1.09, 0.95 (mean 1.03).
RIQDHMAVGEMRHSSIA, EESYRMD, QQYSRLPLA: 0.53, 0.20, 0.37, 0.12, 0.62, 0.31 (mean 0.36).
KLSMTTEMEHKNRNSVA, ELVTRMN, QQYHRLPLS: 0.69, 0.49, 0.48, 0.57, 0.30, 0.30 (mean 0.47).
KLYMMTGIESHAKNSLA, DANRRED, QQYHRLPLS: 0.39, 0.71, 0.87, 0.60, 0.43, 0.91 (mean 0.65).
SLEPFEQQIMKDLNNIA, NTQVRAT, QQYMRLPFM: 0.28, 0.48, 0.31, 0.34, 0.48, 0.42 (mean 0.39).
KIQQSMLYESRNKNSVA, NASTRME, QQYHRLPLM: 0.46, 0.32, 0.31, 0.14, 0.34, 0.26 (mean 0.31).
KLQQQDEYWSRNKNSVA, QASTREQ, QQYHRLPLS: -0.32, -0.50, -0.68, -0.58, -0.68, -0.46 (mean -0.54).
KLSQVTHSESRIKNSIA, EMVTREV, QQYDRLPLS: 1.28, 0.90, 0.87, 0.46, 0.58, 0.94 (mean 0.84).
KLLISVLDESRNDNSVA, NASHRLS, QQYHRLPLS: 0.71, 0.73, 0.65, 0.42, 0.32, 0.85 (mean 0.61).
KLSQVTHSESRNKNSIA, EMVTRNV, QQYDRLPLS: 0.96, 0.62, 0.64, 0.94, 0.74, 0.59 (mean 0.75).
TLTQVQGMESHNANSVA, DLSTRGS, QQYHRLPLS: 0.31, 0.25, 0.12, 0.38, 0.10, 0.37 (mean 0.25).
TLGLNTLVESIKKNNVA, EMSTRMN, QQYVRLPLA: 1.59, 1.18, 1.31, 1.19, 1.19, 1.05 (mean 1.25).
KIRVHNLMFSQNESSIA, GQSVRSE, QQYYHLPLT: 1.02, 1.14, 1.17, 1.29, 1.02, 1.98 (mean 1.27).
TISQLTFVESKNRNNVA, EMTTREN, QDYDRLPLS: 3.43, 1.68, nd, 2.28, 3.89, 2.74 (mean 2.80).
ILSQSVLMGMHLKNSVA, QASTRFD, QQYHRLPLM: 0.82, 0.52, 0.61, 0.64, 1.26, 0.65 (mean 0.75).
SISGFMKSLSAHTNSVA, DMTNRES, QQYDRLPLS: 2.64, 1.03, 0.65, 0.59, 1.18, 1.07 (mean 1.19).
TITQSAQQESHNKNSVA, DLSVRGS, QQYHRLPLS: 0.28, -0.14, -0.06, 0.14, 0.00, 0.02 (mean 0.04).
KIQQEGEYESRNKNSVA, SASTRCP, QQYHRLPLS: 0.04, -0.14, -0.17, -0.37, -0.31, -0.28 (mean -0.21).
QLYEMSYELSGKTHSVA, DNSTRGE, QQYFRLPLQ: 1.37, 1.92, 1.90, 1.30, 1.13, 1.12 (mean 1.46).
KVQASQEYWSRNKNSVA, NASTRET, QQYHRLPLS: 0.21, -0.05, -0.06, -0.14, -0.04, 0.03 (mean -0.01).
KLTHPTDLWLNHASSIA, DANISVE, QQYYQLPLT: 0.63, 0.05, 0.95, 0.29, 0.04, 0.14 (mean 0.35).

A selection of 3 entries from above:

CDR-L1	CDR-L2	CDR-L3	replicates, log10 nM	log10 Kd (nM), mean
KLLISVLDESRNDNSVA	NASHRLS	QQYHRLPLS	0.71, 0.73, 0.65, 0.42, 0.32, 0.85	0.61
RLSTEHTGYGKMMNNIA	QGSTKQF	QQYDRLPLH	0.57, 0.89, 0.65, 0.53, 0.50, 0.82	0.66
KIRVHNLMFSQNESSIA	GQSVRSE	QQYYHLPLT	1.02, 1.14, 1.17, 1.29, 1.02, 1.98	1.27